Data taken from patent US20060292203A1, “Methods and compositions for the treatment of ocular disorders” (TargeGen, Inc., priority 2005, published 2006).

Details: pH 5

Water solubility: <<0.1 mg/mL
Substance: Dexamethasone valerate
